Test results: patent publication US20030211072A1, “Compositions with enhanced oral bioavailability” (priority 2000, published 2003)

Legend:
rat everted gut sacs [1] = test system: rat everted gut sacs
rat everted gut sacs [2] = test system: rat everted gut sacs; remark: listed apart in the source

Xanthan gum
Incd Ratio Serosal transfer (rat everted gut sacs [1]): 2.8 | Incd Ratio Total uptake (rat everted gut sacs [2]): 2.7 | Tissue uptake (rat everted gut sacs [2]): 2.17 ± 0.23 ng/mg of protein

Gellan gum
Incd Ratio Total uptake (rat everted gut sacs [1]): 0.9 | Serosal transfer (rat everted gut sacs [1]): 0.009 ng/mg of protein | Tissue uptake (rat everted gut sacs [1]): 0.050 ng/mg of protein | Total uptake (rat everted gut sacs [1]): 0.059 ng/mg of protein

Like-named read-outs stand apart in the source and are kept apart here.
